Source: PubChem BioAssay
A selection: hits, their analogues and other compounds. The true share with any hit is near 2.1%.
Nrf2 ARE act: activates Nrf2 signaling. AREc32 ARE-luciferase reporter (MCF7-derived line), luminescence, 24 h. Potency, µM (titrated, usually from 46.1 µM), for the others: at the top dose activation, most hits filed as activators. 410,000 tested, 0.31% active; also: potency is read from the fitted curve at half-maximal effect; % of control where 0% means no effect; nearly all actives have a fitted effect of over 65% in size
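Each well held 1000 AREc32 cells, which were incubated with compound for 24 hr at 37 deg C after overnight attachment, and ARE reporter activity was quantified by firefly luciferase luminescence.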
miR-21 FLuc: miR-21 reporter, rising signal | HeLa miR-21 FLuc reporter, luciferase, 48 h | Potency, µM (top dose mostly 38.3 µM), inactives show at the highest dose reporter change, positive = more light | 340,000 tested, under 10 active | AID 2288; active = well fitted rising curve with a large enough effect; inconclusive = small, poorly fitted or top-dose-only effect; inactive = no such curve, though single readings can be large or run the other way;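 note: % of control where 0% means no effect; miR-21 action dims this reporter so a rising signal means less miR-21 action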
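HeLa miR-21-FLuc reporter line, endogenous miR-21; 2000 cells/well in DMEM/10% FBS; compound titration up to ~40uM final, 48 h, 37 degree Celsius; luciferase detection reagent, 15 min lysis, CCD luminescence.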
A549 tox-1: kills or reduces viability of A549 cells in Nrf2 counter-screen; AID 504648; 390,000 tested, 0.16% active; A549 ARE-Fluc cells, CellTiter-Fluor viability, 18-24 h; Potency, µM (doses to about 46 µM), for the others: at the top dose activity change, negative = cytotoxicity, actives largely listed as inhibitors; also: potency is read from the fitted curve at half-maximal effect; % is scaled to controls: 0 for no effect and ±100 for the full control effect
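Cytotoxicity counterscreen: CellTiter-Fluor fluorescence was measured in A549 ARE_Fluc cells after 18-24 h of compound exposure in a concentration series. The subsequent BugLite luminescent read reports ARE-luciferase activity.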
PTAP TSG101 blk: blocks PTAP/TSG101 interaction to inhibit HIV-1 budding; AID 493005; Potency, µM (highest dose often 115 µM), for inactives: at the highest dose activity change, negative = inhibition, most hits filed as inhibitors; 340,000 tested, under 10 active; Q99816; Fluorescence polarization, FITC-PTAP peptide / Tsg101 binding; active = well fitted inhibition curve with a large enough effect in the main read-out, with a control signal flat, not every such curve was filed as active; inconclusive = small, poorly fitted or top-dose-only effect, or effect the other way, or a change in a side signal; inactive = no such curve, though single readings can be large or run the other way; also: potency is read from the fitted curve at half-maximal effect; % of control where 0% means no effect
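Steps: Tsg101 binding domain dispensed (10 uM final), compounds pinned in DMSO, FITC-labeled PTAP-motif peptide added (50 nM final); after 20 min binding at room temperature, polarization measured.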
Nrf2 block: Nrf2 pathway inhibition; Potency, µM (series often up to 46 µM), without a hit: at the highest dose activity change, negative = inhibition, most hits filed as inhibitors; AID 504444; 360,000 tested, 2.1% active; A549 ARE-Fluc reporter, luciferase luminescence, 18-24 h; also: potency is read from the fitted curve at half-maximal effect; % is scaled to controls: 0 for no effect and ±100 for the full control effect; nearly all actives have a fitted effect of over 60% in size
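A549 ARE_Fluc cells (5000/well, 5% FBS OPTI-MEM) pre-incubated 2 h, then treated with compounds 18-24 h at 37C/5% CO2 in concentration-response. CellTiter-Fluor viability read first; BugLite luciferase luminescence after 15 min at room temperature gives Nrf2 activity.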
GRP78 ERSR act: ER stress response induction in glioma | Potency, µM, for the others: top-dose activation, actives largely listed as activators | 420,000 tested, 0.02% active | U87-MG GRP78 promoter luciferase reporter, 16 h; also: potency is read from the fitted curve at half-maximal effect; series mostly up to about 76 µM; % of control where 0% means no effect; nearly all actives have a fitted effect of over 35% in size
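Stably transfected U87-MG glioma cells carrying a GRP78-based luciferase sensor; 16 h compound incubation. Luminescence end-point read 10 min after Bright-Glo addition at room temperature.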
FLuc counter 3: firefly luciferase inhibition, Nrf2 hit validation; Potency, µM (titrated, usually from 57.5 µM), without a hit: at the top dose activity change, negative = inhibition, usual class: inhibitors; shares compounds with Nrf2 block; 1,400 tested, 4% active; purified firefly luciferase, luminescence inhibition; also: potency is read from the fitted curve at half-maximal effect; % is scaled to controls: 0 for no effect and ±100 for the full control effect; nearly all actives have a fitted effect of over 65% in size
A549 tox-2: counter-screen for Nrf2 inhibitors: cytotoxicity in A549 ARE cells | 1,400 tested, 2% active | shares compounds with Nrf2 block | Potency, µM (titrated, usually from 46.1 µM), for the others: at the top dose activity change, negative = cytotoxicity, actives largely listed as inhibitors | A549 ARE-Fluc cells, cytotoxicity counterscreen | AID 720523;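 also: potency is read from the fitted curve at half-maximal effect; cells exposed to compounds for 18 to 24 hours; % is scaled to controls: 0 for no effect and ±100 for the full control effect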
Nrf2 ARE inh: reduces Nrf2 ARE reporter signal in A549 cells | shares compounds with Nrf2 block | A549 ARE-firefly luciferase reporter, luminescence | Potency, µM (highest dose often 46.1 µM), for inactives: top-dose activity change, negative = inhibition, actives largely listed as inhibitors | 1,400 tested, 74% active | AID 720524; also: potency is read from the fitted curve at half-maximal effect; % is scaled to controls: 0 for no effect and ±100 for the full control effect; nearly all actives have a fitted effect of over 65% in size
An asterisk follows results filed as active; ? = inconclusive; . = no result shown; ! = not active in a repeat. Unless noted, calls follow the shape of the dose curve; as a rule, active = well fitted curve in the direction sought with a large enough effect; inconclusive = small, poorly fitted or top-dose-only effect, or another doubt; inactive = no such curve, though single readings can be large; an effect the other way counts as inactive or inconclusive.

SMILES	Nrf2 ARE act	miR-21 FLuc	A549 tox-1	PTAP TSG101 blk	Nrf2 block	GRP78 ERSR act	FLuc counter 3	A549 tox-2	Nrf2 ARE inh
COc1ccc(CC(=O)Nc2ccncc2Cl)cc1	-1%	0%	-1%	0%	5.2µM*	-1%	2%	7%	?
c1ccc(Nc2nc(NCc3ccco3)nc3nccnc23)cc1	.	.	9%	.	3%	.	.	.	.
COc1ccc([C@@]23Oc4cc(OC)cc(OC)c4[C@]2(O)[C@H](O)[C@H](C(=O)N(C)C)[C@H]3c2ccccc2)cc1	-2%	.	?	1%	0.021µM*	0%	2%	?	0.015µM*
Nc1cc(OC(=O)c2ccc(F)cc2)nn1S(=O)(=O)c1ccc(F)cc1	-1%	4%	-5%	-3%	?	-3%	.	.	.
Cc1ccc(S(=O)(=O)n2nc(OC(=O)c3ccccc3C)cc2N)cc1	0%	-3%	4%	0%	5.8µM*	-10%	-13%	0%	2.3µM*
COc1ccccc1C(=O)Oc1cc(N)n(S(=O)(=O)c2ccc(C)cc2)n1	0%	-4%	-16%	-2%	?	-9%	.	.	.
COc1ccc(C(=O)Oc2cc(N)n(S(=O)(=O)c3ccc(C)cc3)n2)cc1	0%	6%	3%	-1%	7.3µM*	-7%	3%	-9%	2.1µM*
Oc1ccc(CCNc2ncnc3ccc(Cl)cc23)cc1	0%	?	-3%	2%	7.3µM*	0%	-18%	-1%	7.3µM*
CCCCNC(=O)NS(=O)(=O)c1ccc(CO)cc1	.	.	.	.	.	0%	.	.	.
CCCC(=O)Nc1ccc(Sc2ccc([N+](=O)[O-])cc2)cc1	3%	21%	-6%	-3%	?	-3%	.	.	.
CCC(CC)C(=O)Nc1ccc(Sc2ccc([N+](=O)[O-])cc2)cc1	5%	?	?	0%	3.7µM*	-3%	1%	-10%	18µM*
O=S(=O)(c1cccc(Br)c1)N1CCN(c2nc(-c3cccs3)nc3ccccc23)CC1	.	.	3%	.	-2%	-3%	.	.	.
CN1C(C(=O)Nc2ccc(OC(F)(F)F)cc2)=CC(c2cccs2)=NS1(=O)=O	0%	6%	1%	-4%	3.7µM*!	-2%	-2%	-26%	.
Cc1ccc(C(C)(C)C)cc1S(=O)(=O)N1CCC(C(=O)N2CCN(c3ccc(O)cc3)CC2)CC1	3%	.	-19%	-2%	9.2µM*	-1%	?	0%	.
COc1[nH]c(/N=C/c2ccco2)c(C#N)c1C#N	.	.	7%	.	16%	-3%	.	.	.
CCCCCCC[n+]1ccc(C)c2ccccc21	.	.	.	.	.	-4%	2%	-15%	.
Cc1cc[n+](CCC2CCCCC2)c2ccccc12	.	.	.	.	.	-4%	2%	-10%	?
COc1cc(OC)c(/C=C/c2cc3ccccc3c[n+]2C)c(OC)c1	.	.	.	.	.	-7%	3%	?	4.6µM*
COc1ccc(OC)c(/C=C/c2cc3ccccc3c[n+]2C)c1	.	.	.	.	.	-3%	-27%	-18%	.
Cc1cc(C)c(CN2CCN(C(=O)Cn3cnc4c(NCc5ccccc5)ncnc43)CC2)c(C)c1	1%	.	-8%	-1%	3.7µM*	-3%	1%	?	0.65µM*
COc1cccc2nccc(/C=C/c3ccc(N(C)C)cc3)c12	.	.	.	.	.	-2%	.	.	.

Four entries picked at random from those above:
SMILES	Nrf2 ARE act	miR-21 FLuc	A549 tox-1	PTAP TSG101 blk	Nrf2 block	GRP78 ERSR act	FLuc counter 3	A549 tox-2	Nrf2 ARE inh
CCCCNC(=O)NS(=O)(=O)c1ccc(CO)cc1	.	.	.	.	.	0%	.	.	.
COc1cc(OC)c(/C=C/c2cc3ccccc3c[n+]2C)c(OC)c1	.	.	.	.	.	-7%	3%	?	4.6µM*
Oc1ccc(CCNc2ncnc3ccc(Cl)cc23)cc1	0%	?	-3%	2%	7.3µM*	0%	-18%	-1%	7.3µM*
CCCC(=O)Nc1ccc(Sc2ccc([N+](=O)[O-])cc2)cc1	3%	21%	-6%	-3%	?	-3%	.	.	.
